The values that follow come from US20170002313A1, “COMPOSITIONS AND METHODS OF OBTAINING AND USING ENDODERM AND HEPATOCYTE CELLS” (Genentech Inc., priority 2012, published 2017).

For one assay, the target named is PI3K alpha (Homo sapiens, UniProt P42336). Put plainly: In vitro kinase profile, PI3K alpha_MTOR score. The format is biochemical.
Another assay deals with mTOR (Homo sapiens, UniProt P42345). The assay can be described thus: In vitro kinase profile, PI3K alpha_MTOR score. Type of assay: biochemical.

Turning to `Cn1c(=O)n(-c2ccc(C(C)(C)C#N)cc2)c2c3cc(-c4cnc5ccccc5c4)ccc3ncc21` [NVPBEZ235], on PI3K alpha, the “PI3K alpha_MTOR score: PI3K alpha” value was “+”.

Turning to `CCC(=O)N1CCN(c2ccc(-n3c(=O)ccc4cnc5ccc(-c6cnc7ccccc7c6)cc5c43)cc2C(F)(F)F)CC1` [Torin1], at mTOR, the “PI3K alpha_MTOR score: MTOR” value was “+++”.
